The source of these data is publication PMC7534037.

Data set [1] relates to primary chicken kidney cells (cKC). The settings on record: up to 20 μM; 72 h; luminescent ATP assay.
For data set [2] the following is noted: human; following oral administration; active form of drug; ref He et al., 1999; cited from earlier work.

oseltamivir carboxylate: the “cell viability of cKC” value in data set [1] is “did not alter the cKC cell viability”. Besides, the “amount excreted in urine” value in data set [2] is on record as more than 80%.
